Experimental findings from article PMC8041284, “Tunable Methacrylamides for Covalent Ligand Directed Release Chemistry” (Journal of the American Chemical Society, 2021) are described below.

By UniProt entry, the sequences of proteins in these tests, tags left out. Residues count along the entry.
UniProt Q06187, 402-655 limits assumed: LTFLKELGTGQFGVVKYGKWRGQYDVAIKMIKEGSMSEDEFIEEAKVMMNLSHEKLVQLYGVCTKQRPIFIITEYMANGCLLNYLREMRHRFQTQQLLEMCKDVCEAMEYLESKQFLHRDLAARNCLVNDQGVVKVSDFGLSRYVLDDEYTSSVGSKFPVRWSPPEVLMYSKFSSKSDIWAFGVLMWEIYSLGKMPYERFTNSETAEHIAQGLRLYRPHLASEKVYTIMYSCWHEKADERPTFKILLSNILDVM

In the assay the target is BTK (Homo sapiens, UniProt Q06187). Conditions: 0.75 uM BTK, […] probe 3l, 15 min preincubation; 10 µM; inhibitor.

As to `O=C(CBr)N1CC([N+](=O)[O-])([N+](=O)[O-])C1`, the “BTK inhibition (%)” value was 18.5%.
